Assay [1] has as its target T1, Thymidine phosphorylase (TP) (Escherichia coli, UniProt P07650).
T1 construct: purchased Sigma Aldrich, USA
In words: Thymidine phosphorylase inhibition assay (spectrophotometric, 290 nm). The conditions noted are these: E. coli TP; n = 3; NA: not active; read-out: Thymidine Phosphorylase Inhibitory Activity IC50 ± SEM. The class given is biochemical. How it is done: Thymidine phosphorylase (source: E. coli, EC Number 2.4.2.4), thymidine (substrate), and potassium phosphate monobasic (as buffer) were acquired from Sigma Aldrich, USA. The 7-deazaxanthine (standard inhibitor) was acquired from Santa Cruz Biotechnology, Inc., Santa Cruz, CA, USA. Dimethylsulfoxide (DMSO), used as a solvent, was obtained from Fisher Scientific, Schwerte, Germany.
Reaction was performed in 96-well plates and in triplicates. The 200 µL reaction mixture was comprised of 10 µL of the test compound (0.5 mM; dissolved in DMSO), 150 µL of potassium phosphate buffer (pH 7.0, 50 mM), and 20 µL of TP enzyme (0.058 unit/well). The 96-well plate containing all these reagents was then incubated at 30 °C for 10 min. After 10 min, 20 µL of 1.5 mM substrate, i.e., thymidine was added, and changes in O.D. (optical density) were recorded at 290 nm for 10 min by using microtiter plate reader (SpectraMax 384, Molecular Devices, San Jose, CA, USA).
SoftMax Pro 4.8 software (Molecular Devices, San Jose, CA, USA) was used to analyse the results. Percent inhibition was calculated by using Microsoft Excel by applying the following formula: % Inhibition=100−(O.D.Test compound/O.D.Control)×100 where O.D. represented the optical density.
Results were presented as means ± SEM (standard error of mean) (n = 3). […]

Sequences of proteins named here, by UniProt entry; tags and fusion partners are left off. A change or cut given only in a name is not applied to a line headed by its entry.
UniProt P07650: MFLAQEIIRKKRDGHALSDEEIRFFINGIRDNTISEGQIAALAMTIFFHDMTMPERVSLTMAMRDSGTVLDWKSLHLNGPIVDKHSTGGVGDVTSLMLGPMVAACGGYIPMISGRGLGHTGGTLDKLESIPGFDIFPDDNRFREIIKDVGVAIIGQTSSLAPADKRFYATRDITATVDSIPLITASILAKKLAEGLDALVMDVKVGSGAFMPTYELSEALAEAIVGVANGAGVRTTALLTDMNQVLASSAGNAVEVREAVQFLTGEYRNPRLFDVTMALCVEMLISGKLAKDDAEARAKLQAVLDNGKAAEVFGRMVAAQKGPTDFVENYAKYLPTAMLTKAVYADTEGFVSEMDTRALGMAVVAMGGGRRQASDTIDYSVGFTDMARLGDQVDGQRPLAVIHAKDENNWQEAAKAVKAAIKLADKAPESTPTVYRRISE

For assay [2], the target named is T1, Thymidine phosphorylase (TP). In words: Mechanistic (kinetic) studies of TP inhibition. The assay is classed as biochemical, E. coli. How it is done:
Kinetic studies are used for the investigation of chemical reactions in terms of their reaction rates, reaction mechanisms, and the factors that affect these parameters. Herein, it is used determine the type/mechanism of inhibition of dihydropyrimidone derivatives. In mechanistic studies, TP (0.058 U/200 µL) was incubated with test compounds (200–500 µM) at 30 °C for 10 min. The reaction was then initiated with the addition of different concentrations of thymidine (ranging between 0.1875 and 1.5 mM). Cleavage of thymidine was monitored continuously for 10 min, at 290 nm, by using ELISA plate reader (SpectraMax 384, Molecular Devices, San Jose, CA, USA).
Results were presented as means ± SEM (standard error of mean) (n = 3). EZ-FIT, enzyme kinetics software (Perrella Scientific, Inc., Amherst, GA, USA) was used to calculate the IC50 values. In order to analyse the kinetic parameter, Grafit version 7.0 (Erithacus Software Ltd., Horley, UK) was used.

This passage reports IC50 and Ki results from publication PMC10143232, “Dihydropyrimidone Derivatives as Thymidine Phosphorylase Inhibitors: Inhibition Kinetics, Cytotoxicity, and Molecular Docking” (Molecules, 2023).

SMILES strings stand for the structures.

Take `O=c1[nH]c(=O)c2cc[nH]c2[nH]1` [7-Deazaxanthine, reference compound]: in assay [1], the IC50 amounted to 41 ± 1.6 µM. In assay [2], this molecule registered a Ki of 45 ± 0.003 µM.

For orientation: IC50 means the midpoint of a concentration-inhibition curve. Broadly, the Ki is the dissociation constant of the complex between target and ligand, obtained from inhibition or displacement. A low value points to a stronger hold on the target.
